According to US20190247381A1:

Target: FLAG-HA-Atoh1 (Mus musculus (Mouse)) (UniProt P48985)
Test: IP-MS: immunoprecipitation of Atoh1 and its associated binding partners, excised gel band, mass spectrometry

Row | Total peptide [peptides] | Substance
1 | 67 | RPL3 (from UniProt P39023)
2 | 106 | RPL4 (from UniProt P36578)
3 | 72 | TUFM (from UniProt P49411)
